The assay has as its target T1, human V2R (Homo sapiens, UniProt P30518).
T1 construct: purchased Perkinelmer, USA
Description: Competitive isotope ligand binding, V2 receptor. As to the method: The cells with high expression of human V1a receptor were amplified, collected, washed twice with PBS, resuspended with PBS containing a protease inhibitor, homogenized with a homogenizer at 15000 r/min to break the cells, and centrifuged at 4° C. and 3000 r/min for 15 minutes. The supernatant was collected, centrifuged at 20,000 r/min at 4° C. for 45 minutes. Then the supernatant was discarded to obtain a cell membrane precipitation. Buffer was added to resuspend to measure the protein concentration, aliquoted, and stored at −80° C. The cell membranes of highly expressed human V1b and V2 receptors were purchased from Perkinelmer, USA.
The stock solution of the test compound and that of the positive control were diluted to 1 mM (10-fold dilution) and 0.1 mM (100-fold dilution) with DMSO, respectively, and then sequentially subjected to a four-fold dilution with DMSO to the tenth point.
Cell membranes overexpressing human receptors were prepared with assay buffer to 5 mg/mL.
• 1. 1 μL of the compound was aspirated from the dilution plate into each well of the 96-well assay plate (the concentration of the test compound in the reaction would be diluted 100-fold). To the control well was added 1 μL of DMSO. • 2. 10 mL of membrane solution containing 5 μg/μL was prepared. • 3. To the compound assay plate was added the membrane solution from step 2 with a pipette, and each well was added with 89 μL of the membrane solution. • 4. […] The configured test plate was placed at 30° C. and incubated for 60 minutes. • 6. The membrane complexes were collected into 0.5% PEI pre-coated GF/B plate with Cell Harvester, washed 3 times with 2 mL of pre-cooled elution buffer at 4° C., and dried at 37° C. for 2 hours. • 7.
Y=Bottom+(Top−Bottom)/(1+10^((X−Log IC50))), wherein: Y is the reading value of the liquid scintillation counter, and X is the logarithmic value of the compound concentration.

Sequences of proteins named here, by UniProt entry; tags and fusion partners are left off. A change or cut given only in a name is not applied to a line headed by its entry.
UniProt P30518, whole entry: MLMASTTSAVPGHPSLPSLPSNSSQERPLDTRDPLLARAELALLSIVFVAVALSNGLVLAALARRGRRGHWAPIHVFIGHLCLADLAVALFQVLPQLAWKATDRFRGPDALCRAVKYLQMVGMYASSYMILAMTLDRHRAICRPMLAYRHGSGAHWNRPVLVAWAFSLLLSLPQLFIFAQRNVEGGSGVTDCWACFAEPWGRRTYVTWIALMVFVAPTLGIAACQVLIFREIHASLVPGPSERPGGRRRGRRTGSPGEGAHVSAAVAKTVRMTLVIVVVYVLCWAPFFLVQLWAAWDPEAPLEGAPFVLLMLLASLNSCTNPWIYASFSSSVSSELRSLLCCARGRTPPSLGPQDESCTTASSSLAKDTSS

Read-outs that look alike come from different tables or passages of the source.

As to `Cc1ccccc1C(=O)Nc1ccc(C(=O)N2CCCC(O)c3cc(Cl)ccc32)c(C)c1` (stereo not drawn) [Reference substance 1, Tolvaptan, reference compound], the Ki is 0.27 nM (Binding affinity V2R, N = 1, isotope-labeled vasopressin 1 nM, experiment 1); 0.6 nM (Binding affinity V2R, N = 2, isotope-labeled vasopressin 1 nM, experiment 2); 0.44 ± 0.17 nM (isotope-labeled vasopressin 1 nM, mean ± spread, read-out: Binding affinity V2R, mean of the two experiments).

Values taken from patent US12600729B2, “New-type benzazepine fused ring derivative” (SHANGHAI JEYOU PHARMACEUTICAL CO., LTD., priority 2021, dated 2026).
